Source: paper PMC3685407 (Neuropharmacology, 2013)

By UniProt entry, the sequences of proteins in these tests, tags left out. Residues count along the entry.
UniProt P36544, 23-502: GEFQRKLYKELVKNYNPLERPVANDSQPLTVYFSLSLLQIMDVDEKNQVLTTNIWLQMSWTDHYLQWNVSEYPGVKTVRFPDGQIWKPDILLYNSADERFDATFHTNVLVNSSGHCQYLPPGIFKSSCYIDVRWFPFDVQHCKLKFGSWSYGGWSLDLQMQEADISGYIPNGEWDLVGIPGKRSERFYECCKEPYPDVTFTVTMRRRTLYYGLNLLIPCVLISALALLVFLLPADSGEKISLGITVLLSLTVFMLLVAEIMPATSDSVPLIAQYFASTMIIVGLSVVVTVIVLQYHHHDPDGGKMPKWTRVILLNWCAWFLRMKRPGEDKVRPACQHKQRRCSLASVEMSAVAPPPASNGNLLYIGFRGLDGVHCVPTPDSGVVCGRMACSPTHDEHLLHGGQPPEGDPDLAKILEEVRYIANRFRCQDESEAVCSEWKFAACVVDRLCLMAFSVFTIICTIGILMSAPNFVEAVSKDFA

Biological target: human α7 nAChRs (Homo sapiens, UniProt P36544)
Assay: biochemical
Format: binding

SMILES: c1cnc2cc3c(cc2n1)[C@@H]1CNC[C@H]3C1 [Varenicline]
- Ki: 290 ± 34 nM
